From ChEMBL document CHEMBL5506019 (J Med Chem, 2024) come the findings set out here.

Sequences of proteins named here, by UniProt entry; tags and fusion partners are left off. A change or cut given only in a name is not applied to a line headed by its entry.
UniProt P28335: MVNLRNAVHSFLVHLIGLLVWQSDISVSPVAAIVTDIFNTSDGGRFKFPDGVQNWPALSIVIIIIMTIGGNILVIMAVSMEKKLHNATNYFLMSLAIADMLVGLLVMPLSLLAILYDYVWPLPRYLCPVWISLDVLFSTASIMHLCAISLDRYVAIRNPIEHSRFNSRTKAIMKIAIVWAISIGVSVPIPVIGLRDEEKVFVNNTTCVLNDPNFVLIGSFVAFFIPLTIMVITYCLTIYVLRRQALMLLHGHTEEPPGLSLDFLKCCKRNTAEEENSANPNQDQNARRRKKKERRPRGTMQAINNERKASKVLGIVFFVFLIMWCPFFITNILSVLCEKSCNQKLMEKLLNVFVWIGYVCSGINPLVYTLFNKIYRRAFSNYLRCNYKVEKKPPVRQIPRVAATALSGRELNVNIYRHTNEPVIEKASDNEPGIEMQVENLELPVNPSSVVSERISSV

Activity calls are given as the source filed them. The rule behind the calls is not given here.

This test addresses 5-hydroxytryptamine receptor 2C (Homo sapiens) (UniProt P28335). Nature of the test: Agonist activity at human 5-HT2CR expressed in HEK293 cells upto 50 uM incubated upto 90 sec by Fluo-4 AM dye based Ca2+ imaging assay. Format: functional, cell-based.
As for `COc1cc(C2CCCNC2)c(OC)cc1Cl` (configuration not stated), the outcome was inactive.

Take `COc1cc(C2CCCNC2)c(OC)cc1I` (configuration not stated): the result was inactive.

As for `COc1cc(C2CCCNC2)c(OC)cc1C#N` (configuration not stated), the outcome was inactive.

Regarding `COc1cc(C2CCCNC2)c(OC)cc1SC(C)C` (configuration not stated), the outcome was inactive.

As to `COc1cc(C(F)(F)F)c(OC)cc1[C@H]1CCCN(C)C1`, the result was inactive.

`COc1cc(C2CCCNC2)c(OC)cc1C` (configuration not stated): the result was inactive.

On to `CCCCc1cc(OC)c(C2CCCNC2)cc1OC` (configuration not stated), for which the result was inactive.

Regarding `CCOc1cc(C2CCCNC2)c(OC)cc1C(F)(F)F` (configuration not stated), the outcome was inactive.

`COc1cc(C(F)(F)F)ccc1C1CCCNC1` (configuration not stated): the result was inactive.

For `COc1cc(C(F)(F)F)c(OC)cc1[C@@H]1CCCNC1`, the result was inactive.

Regarding `COc1cc([C@@H]2CCCNC2)c(OC)cc1Br`, the outcome was inactive.

In the case of `CCOc1cc(C(F)(F)F)c(OC)cc1C1CCCNC1` (configuration not stated), the outcome was inactive.
